Earlier results in patent US5891887A, “Use of [R-(Z)]-α-(methoxyimino)-α-(1-azabicyclo [2.2.2.]oct-3-yl)acetonitrile to reduce amyloid βA4 formation in alzheimer's disease” (priority 1994, dated 1999).

Test system: m1 and/or m3 receptor subtypes
Settings: by activation of m1 and/or m3 receptor subtypes; literature

C[N+](C)(C)CCOC(N)=O [carbachol]
Production of non-amyloidogenic APP fragments: enhance
